The experiment concerns the target Coagulation factor X (Homo sapiens, UniProt P00742). In words: Inhibitory concentration to coagulation factor X.

The chains behind the UniProt entries cited, without tags or fusion partners. Residues count along the entry.
UniProt P00742, 41-179 limits assumed: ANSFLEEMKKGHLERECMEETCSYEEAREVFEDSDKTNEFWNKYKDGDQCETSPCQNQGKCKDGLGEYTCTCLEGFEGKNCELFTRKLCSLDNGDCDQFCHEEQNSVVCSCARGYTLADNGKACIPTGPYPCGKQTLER
UniProt P00742, 235-488 limits assumed: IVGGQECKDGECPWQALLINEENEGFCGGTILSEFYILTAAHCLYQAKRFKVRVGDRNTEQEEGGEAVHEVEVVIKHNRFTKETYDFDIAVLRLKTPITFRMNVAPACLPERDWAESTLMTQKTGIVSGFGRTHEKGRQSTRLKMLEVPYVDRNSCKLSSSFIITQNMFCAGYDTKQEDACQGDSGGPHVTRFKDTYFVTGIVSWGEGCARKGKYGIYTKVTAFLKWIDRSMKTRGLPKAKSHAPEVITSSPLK

SMILES strings stand for the structures. pIC50: −log10 of the molar value.

In general, pIC50 refers to the IC50 on a negative log10 scale, so that one unit is a factor of ten. Take `C/C(=C(\F)C(=O)Nc1ccc(-c2ccccc2S(N)(=O)=O)cc1)c1cccc(C(=N)NC2CC2)c1`: the pIC50 is 5.79.
